{"sequences": {"note": "By UniProt entry, the sequences of proteins in these tests, tags left out.", "UniProt P51685, whole entry": "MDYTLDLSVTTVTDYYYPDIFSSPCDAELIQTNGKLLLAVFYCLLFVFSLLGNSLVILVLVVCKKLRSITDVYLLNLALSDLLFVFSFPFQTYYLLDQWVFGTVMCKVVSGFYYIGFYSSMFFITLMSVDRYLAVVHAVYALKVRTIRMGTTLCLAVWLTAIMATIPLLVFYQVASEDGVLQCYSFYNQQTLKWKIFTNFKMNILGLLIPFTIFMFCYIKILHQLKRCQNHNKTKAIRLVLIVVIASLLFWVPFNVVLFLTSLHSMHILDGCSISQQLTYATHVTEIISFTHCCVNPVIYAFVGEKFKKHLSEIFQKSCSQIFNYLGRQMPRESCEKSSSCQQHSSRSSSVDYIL"}, "source": "patent US12552753B2", "about": "“Methods and compositions for targeting Tregs using CCR8 inhibitors” (Nanjing Immunophage Biomedical Co., Ltd., priority 2020, dated 2026)", "molecular_target": "CCR8 (Homo sapiens, UniProt P51685)", "assay": "Tango assay (Tango-CCR8-Gal4-CHO-K1 cells, CCL1-stimulated, ONE-Glo luminescence)", "data": [{"smiles": "Cc1cc(S(=O)(=O)N[C@H](C)C2CCN(C)CC2)ccc1NC(=O)c1cccc(Cl)c1C", "note": "[Compound 286, (R)-3-chloro-2-methyl-N-(2-methyl-4-(N-(1-(1-methylpiperidin-4-yl)ethyl)sulfamoyl)phenyl)benzamide]", "values": [{"measurement": "IC50", "value": 1, "unit": "nM"}]}]}
